Laboratory results published in patent US20260124309A1, “STAT6 DEGRADERS AND USES THEREOF” (Kymera Therapeutics, Inc., priority 2023, published 2026).

The chains behind the UniProt entries cited, without tags or fusion partners. Residues count along the entry.
UniProt P42226, whole entry: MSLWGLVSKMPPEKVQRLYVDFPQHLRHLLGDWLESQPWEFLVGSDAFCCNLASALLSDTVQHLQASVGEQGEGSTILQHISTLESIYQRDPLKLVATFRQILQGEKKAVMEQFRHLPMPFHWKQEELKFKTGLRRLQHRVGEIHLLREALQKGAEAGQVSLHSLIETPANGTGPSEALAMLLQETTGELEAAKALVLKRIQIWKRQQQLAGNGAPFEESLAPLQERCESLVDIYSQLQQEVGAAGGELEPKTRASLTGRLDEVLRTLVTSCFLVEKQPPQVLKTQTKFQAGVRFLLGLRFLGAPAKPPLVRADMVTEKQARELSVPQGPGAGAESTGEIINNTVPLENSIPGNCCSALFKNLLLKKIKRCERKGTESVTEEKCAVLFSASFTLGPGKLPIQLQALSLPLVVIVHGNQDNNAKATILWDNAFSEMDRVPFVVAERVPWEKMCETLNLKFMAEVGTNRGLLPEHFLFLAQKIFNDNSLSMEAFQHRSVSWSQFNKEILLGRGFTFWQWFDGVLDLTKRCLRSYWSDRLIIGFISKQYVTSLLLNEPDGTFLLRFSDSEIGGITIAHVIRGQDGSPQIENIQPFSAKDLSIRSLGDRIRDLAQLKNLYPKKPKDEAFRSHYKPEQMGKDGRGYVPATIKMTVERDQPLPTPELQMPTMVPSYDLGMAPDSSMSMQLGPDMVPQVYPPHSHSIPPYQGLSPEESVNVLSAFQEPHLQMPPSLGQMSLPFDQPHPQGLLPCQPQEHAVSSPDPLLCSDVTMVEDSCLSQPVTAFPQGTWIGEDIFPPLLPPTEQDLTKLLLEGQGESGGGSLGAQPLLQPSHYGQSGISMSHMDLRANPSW
UniProt P42226, 123-632 limits assumed: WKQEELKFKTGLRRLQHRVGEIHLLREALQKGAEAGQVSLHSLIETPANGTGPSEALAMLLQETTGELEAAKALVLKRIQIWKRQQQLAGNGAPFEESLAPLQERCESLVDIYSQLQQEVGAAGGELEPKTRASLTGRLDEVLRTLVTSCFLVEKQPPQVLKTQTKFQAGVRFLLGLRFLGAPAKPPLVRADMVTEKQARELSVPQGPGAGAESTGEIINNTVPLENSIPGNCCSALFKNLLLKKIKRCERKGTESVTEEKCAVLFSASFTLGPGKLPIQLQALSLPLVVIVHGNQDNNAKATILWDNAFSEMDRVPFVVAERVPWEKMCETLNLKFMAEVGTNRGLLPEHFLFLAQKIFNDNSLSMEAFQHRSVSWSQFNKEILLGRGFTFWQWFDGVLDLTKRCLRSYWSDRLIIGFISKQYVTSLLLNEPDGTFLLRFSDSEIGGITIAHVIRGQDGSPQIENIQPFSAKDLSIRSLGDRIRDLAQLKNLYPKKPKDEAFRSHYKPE

Tests used:
[1] = biological target: biotinylated truncated STAT6 (123-632)-avi (Homo sapiens, UniProt P42226); experiment: STAT6 HTRF binding assay; details: read-out: STAT6 HTRF: Average IC50; HTRF binding, 0.15 nM biotinylated truncated STAT6 (123-632)-avi, 20 nM fluorescein-labeled probe
STAT6 = STAT6 (Homo sapiens, UniProt P42226); experiment: STAT6 ubiquitination in PBMC (diGly peptide enrichment, mass spectrometry)
Procedure: This example describes ubiquitination of STAT6 by compounds disclosed herein. Human STAT6 contains the following amino acid sequence:
PBMC Sample Preparation Protocol. Frozen PBMC (AllCells LP, CR, MNC, 100M) were thawed and washed with prewarned complete media (RPMI 1640+10% HIFBS+Pen/Strep prepared with RPMI 1640 (Gibco. #11-875-093, #15140-122 and R&D Systems, #S11550H)). The cells were resuspended in complete media at 1.25 million cells per mL in flasks and incubated overnight in a tissue culture incubator.
The next day, 0.72 μL or 2.4 μL of a 10 mM stock solution of degrader compound (10 mM of I-1, I-167, I-205, I-383, or I-452 in DMSO) was added to a final concentration of 30 nM or 100 nM. At the end of treatment (15 minutes), the cell culture was poured into 50 mL tubes (10 tubes for each 480 mL total volume). The 50 mL tubes were spun down at 4000×g for 2 minutes. The media was decanted, and cells washed with 30 mL PBS. All the cells were combined, and then spun again at 4000×g for 2 minutes. Wash solution was decanted. All tubes were washed once more with 25 mL PBS and combined into one tube. 200 μL the cells (0.8%) was set aside for quality control analysis. The rest of the cells were spun down at 4000×g for 2 minutes. The second wash solution was decanted, and cells spun down again at 4000×g for 1 minute. A 1 mL pipette was used to remove all PBS from the pellet of cells. The pellet of cells was snap frozen for 20 seconds in liquid nitrogen, then stored at −78° C.
Extract protein, reduce, and alkylate: 1800 μL of Urca buffer (8 M Urca, 100 mM Triethylammonium bicarbonate (TEAB). 1 mM ethylenediaminetetraacetic acid (EDTA), 1% Halt™ Protease and Phosphotase Inhibitor (Thermo Fisher Scientific), and 1% Pierce™ Universal Nuclease (Thermo Fisher Scientific) was added to each cell sample. Samples were probe sonicated for 15 seconds (3 times) using 40% amplitude. Protein concentrations of the resultant cell lysates were determined by using Pierce™ Rapid Gold BCA Protein Assay Kit (Product No. A53226).
The lysate mixture containing 20 mg total proteins was reduced at RT for 30 min by adding dithiothreitol (DTT) to the final concentration of 10 mM DTT. 2-iodo acetamid (IAA) was then added to a final concentration of 10 mM to alkylate the proteins. The lysate mixture was placed in the dark for 30 mins, then a further amount of DTT to again reach 10 mM final concentration was added to the lysate mixture to neutralize excess IAA. The lysate mixture was incubated at room temperature for 5 min, then 100 mM TEAB buffer at pH 8.0 was added to dilute the lysate mixture to a urea concentration of less than IM. Trypsin/Lys-C Protease was then added to the reduced and alkylated lysate mixture to provide a protein to enzyme ratio of 1:50. The mixture was digested at 37° C. overnight in an incubator with 500 rpm shaking. The mixture was then acidified to a pH of lower than 3 using trifluoro acetic acid (TFA) and gently mixed to quench the digestion process.
Peptide Desalting: 200 mg Sep-Pak C18 cartridges (Waters) were activated by adding twice 750 μL of methanol (MeOH). Cartridges were equilibrated by twice letting 700 μL 0.1% formic acid (FA) pass through as above. The acidified sample mixture was added to the cartridges and collected after passing through the cartridge. Cartridges were washed three times with 700 μL of 0.1% formic acid. Peptides were eluted using 700 L volumes of 50% acetonitrile (ACN)^+0.1% TFA and dried in a speed-vac concentrator.
DiGly Peptide Enrichment: Peptide samples containing 20 mg/sample were resuspended in 1.8 mL of 1×HS IAP Bind Buffer #1 from PTMScan® HS Ubiquitin/SUMO Remnant Motif (K-GG) Kit (#59322S). To that end, pellets were broken up mechanically by pipetting repeatedly, followed by shaking at room temperature for 5 min or placement in a sonicator bath for 2 min to ensure complete solubilization. The pH of peptide solutions was adjusted to 7.0 with 1M pH 7.0 TRIS base solution. […]

In the case of `COc1cc(N2CCN(c3ccc(-c4cc(C5=CCCN(C(=O)CCn6cccn6)C5)c(F)c5[nH]c(C(=O)N(C)C)cc45)cc3)CC2)c(F)cc1NC1CCC(=O)NC1=O` (centres unmarked), the IC50 [1] is reported as less than 100 nM, the STAT6 ubiquitination profile (STAT6; DiGly enriched peptides from treated cells, compared with endogenous profiles of the literature) is reported as “distinct from profiles reported in the literature in untreated cancer cell lines” and the “% of Total” value (STAT6; STAT6 diGly site K94) is reported as 2.7 ± 0.5%. The “Intensity (E + 06)” value (STAT6; STAT6 diGly site K94) was 6.33 ± 0.74 E + 06, the “% of Total” value (STAT6; STAT6 diGly site K107) was 1.1 ± 0.4% and the “Intensity (E + 06)” value (STAT6; STAT6 diGly site K107) was 2.54 ± 1.19 E + 06. The “% of Total” value (STAT6; STAT6 diGly site K108) was 1.2 ± 0.6%, the “Intensity (E + 06)” value (STAT6; STAT6 diGly site K108) was 2.88 ± 1.25 E + 06 and the “% of Total” value (STAT6; STAT6 diGly site K124) was 2.0 ± 0.2%. For the same compound, the “Intensity (E + 06)” value (STAT6; STAT6 diGly site K124) was 4.91 ± 1.17 E + 06, the “% of Total” value (STAT6; STAT6 diGly site K277) was 0.0 ± 0.0% and the “Intensity (E + 06)” value (STAT6; STAT6 diGly site K277) was 0 E + 06. For the same compound, the “% of Total” value (STAT6; STAT6 diGly site K284) was 0.8 ± 0.1%, the “Intensity (E + 06)” value (STAT6; STAT6 diGly site K284) was 2.01 ± 0.46 E + 06 and the “% of Total” value (STAT6; STAT6 diGly site K288) was 3.5 ± 0.7%. For the same compound, the “Intensity (E + 06)” value (STAT6; STAT6 diGly site K288) was 8.46 ± 2.96 E + 06, the “% of Total” value (STAT6; STAT6 diGly site K307) was 3.4 ± 0.8% and the “Intensity (E + 06)” value (STAT6; STAT6 diGly site K307) was 7.84 ± 0.84 E + 06. The “% of Total” value (STAT6; STAT6 diGly site K319) was 9.8 ± 1.6%, the “Intensity (E + 06)” value (STAT6; STAT6 diGly site K319) was 23.7 ± 7.7 E + 06 and the “% of Total” value (STAT6; STAT6 diGly site K504) was 38.0 ± 2.6%. For the same compound, the “Intensity (E + 06)” value (STAT6; STAT6 diGly site K504) was 89.9 ± 10.1 E + 06, the “% of Total” value (STAT6; STAT6 diGly site K595) was 5.5 ± 1.0% and the “Intensity (E + 06)” value (STAT6; STAT6 diGly site K595) was 12.9 ± 2.6 E + 06. The “% of Total” value (STAT6; STAT6 diGly site K614) was 2.4 ± 0.8%, the “Intensity (E + 06)” value (STAT6; STAT6 diGly site K614) was 5.72 ± 2.49 E + 06 and the “% of Total” value (STAT6; STAT6 diGly site K618) was 1.6 ± 0.1%. The “Intensity (E + 06)” value (STAT6; STAT6 diGly site K618) was 3.86 ± 0.49 E + 06, the “% of Total” value (STAT6; STAT6 diGly site K630) was 15.9 ± 0.5% and the “Intensity (E + 06)” value (STAT6; STAT6 diGly site K630) was 37.8 ± 6.7 E + 06. For the same compound, the “% of Total” value (STAT6; STAT6 diGly site K647) was 12.1 ± 3.2% and the “Intensity (E + 06)” value (STAT6; STAT6 diGly site K647) was 29.3 ± 10.2 E + 06.
